# Laboratory results taken from PubChem BioAssay AID1483 (NMMLSC, 2009).
# The entries are a selection whose mix differs from that of the whole data set. Some of these compounds have results that are not shown, active ones among them. Active and inactive are the calls of the source.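 How the source made its calls: active means fluorescence beyond the plate control mean plus 3 SD, with a fluorescence-to-maximum score over 2 (cut at about 25 in these data); inactive means the rest.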
# Experiment: green-channel fluorescence of compounds in CCRF-Adr cells – cell-based, 488/530 nm, flow cytometry, artefact control for ABC transporter inhibitor project, confirmation (AID 1483)
# Conditions: compound autofluorescence 488/530 nm, at 6.6 µM, hits give high values
# Procedure, shortened: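 Probe or stimulus: JC-1 substrate omitted | Assay system: Drug-resistant CCRF-Adr cells | Compound dosing: One dose, 6.6 µM | Measure: Compound-treated cell MFI minus DMSO-treated cell MFI | Control set: DMSO-treated cell wells as background reference | Times: Compound with cells 10 min end-over-end rotation, 25 °C, immediate read | Signal: Flow cytometric MFI, 530 ± 20 nm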
structure (smiles),measurement,value
CN(C)c1cccc(C(=O)NCC2(N(C)C)CCCCC2)c1,fluorescence,inactive: -2.04
